# Values quoted from earlier work in paper PMC12528161.
# By UniProt entry, the sequences of proteins in these tests, tags left out. Residues count along the entry.
# UniProt P42081, 24-247: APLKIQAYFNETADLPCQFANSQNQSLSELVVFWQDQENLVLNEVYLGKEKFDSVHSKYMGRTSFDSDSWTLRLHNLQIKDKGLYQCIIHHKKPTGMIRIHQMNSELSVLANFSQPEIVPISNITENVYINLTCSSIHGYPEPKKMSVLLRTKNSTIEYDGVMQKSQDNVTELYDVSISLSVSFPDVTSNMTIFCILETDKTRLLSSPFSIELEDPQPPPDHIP
# Assays:
# CD80 (Homo sapiens) = CD80 (Homo sapiens) (UniProt P33681)
# CD86 (Homo sapiens) = CD86 (Homo sapiens) (UniProt P42081)
substance,measurement,setting,value
CTLA-4 (from UniProt P16410),Kd,CD80 (Homo sapiens),0.2 µM
same,Kd,CD86 (Homo sapiens),2 µM
